# pIC50: −log10 of the molar value. Values joined by “and” are separate entries in the source; they are usually repeats but may differ in a detail not shown here. Equal entries are not always repeated.
# The chains behind the UniProt entries cited, without tags or fusion partners. Where a name states a change or a piece, a line headed by the entry shows the natural chain unless it says otherwise.
# UniProt O14684: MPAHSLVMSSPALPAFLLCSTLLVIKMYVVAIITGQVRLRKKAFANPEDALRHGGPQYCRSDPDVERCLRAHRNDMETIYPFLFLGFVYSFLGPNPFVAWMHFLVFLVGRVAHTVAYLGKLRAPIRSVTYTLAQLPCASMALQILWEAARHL
# Key:
# human mPGES1 = human mPGES1 (Homo sapiens (Human), UniProt O14684); assay: Inhibition activity for human mPGES1 (enzyme assay, PGE2 HTRF); assay type: biochemical; conditions: membrane protein from HEK-293 F transfected with human mPGES1
# Description: The method described here is used for determining the inhibition activity of the present compounds for human mPGES1.
# • 1. PGE2 Assay kit (Cisbio, #62P2APEB) • 2. Prostaglandin H2 (Sigma, #P7867-1MG) • 3. FlexStation3 microplate reader. II. Experimental Procedure • 1. Obtaining the membrane proteins of mPGES1 enzyme
# The cell density of HEK-293 F was grown to 6×10^5 per milliliter and was transferred with the plasmid containing human mPGES1 gene by transfection reagent PEI the next day. The cells were continuously cultured for 72 hours at 37° C. with shaking. After centrifuging at 1100 g for 5 minutes, the cells were harvested. After ultrasonication in an ice bath and centrifugation at 5000 g for 10 minutes, the supernatant was obtained. The supernatant was centrifuged at 100000 g for 1 hour to obtain a precipitate. The precipitate was resuspended with storage buffer containing 10% glycerinum, subpackaged and frozen rapidly under liquid nitrogen, and stored at −80° C. • 2. mPGES1 enzyme assay
# mPGES1 was diluted with assay buffer and added into plate at 49 μL/well supplemented with 1 μL of compound (the final concentration of each compound at seven gradient concentrations was 10000 nM, 1000 nM, 100 nM, 10 nM, 1 nM, 0.1 nM and 0.01 nM). Each well was added with 3.8 μL of 20 μg/mL PGH precooled on ice after shaking for 30 seconds and incubated for 7 minutes on ice. Then, each well was added with 53.8 μL of 6 mg/mL SnCl2 to quench the reaction. The sample was diluted with dilute buffer at 1:400. 10 μl of diluted sample, 5 μL PGE2-d2 and 5 μL anti-PGE2 Cryptate were added to a black 384-well plate, and incubated at 4° C. overnight. HTRF was determined using Flexstation, and the IC50 of the compounds was obtained by data processing software.
# The inhibition activity of the present compounds on mPGES1 was tested by the assay described above.
# [1] = system: secretion of PGE2 by A549 cells stimulated with IL-1β; assay: Inhibition of the secretion of PGE2 by A549 cells stimulated with IL-1β; assay type: cell-based; conditions: Homo sapiens, A549, 24 h, IL-1β 0.2 ng/mL
# Excerpt: The method described here was used for determining the inhibition activity of the present compounds on the secretion of PGE2 by A549 cells stimulated with IL-1β.
# • 1. PGE2 Assay kit (Cisbio, #62P2APEB) • 2. IL-1β (Peprotech, # AF-200-01B) • 3. Cell line: A549 (ATCC: CCL-185) • 4. FlexStation3 microplate reader. II. Experimental Procedure
# On the first day, A549 cells were inoculated in a 96-well plate at 40000/well. On the second day, the culture medium in the 96-well plate was removed and then added with 90 μL of compound diluted with culture medium (the concentration of each compound at seven gradient concentrations was 11111 nM, […], 1.11 nM, 0.11 nM and 0.011 nM). The cells were incubated for 30 minutes at 37° C. in an incubator, and then added with IL-1β to a final concentration of 0.2 ng/mL. Then, the cells were incubated for another 24 hours at 37° C. On the third day, 10 μl of supernatant, 5 μL of PGE2-d2 and 5 μL of anti-PGE2 Cryptate were added into a black 384-well plate, and then incubated at 4° C. overnight. HTRF was determined using Flexstation, and the IC50 of the compounds was obtained by data processing software.
# The inhibition activity of the present compounds on the secretion of PGE2 by A549 cells stimulated with IL-1β was determined by the assay described above.
Compound,pIC50 (human mPGES1),pIC50 [1]
"CC(C)(F)C(=O)NCc1cnc(C(F)F)c(C(=O)Nc2ccc3c(c2)cc(-c2ccc(C(F)(F)F)cc2)n3[C@H]2CCOC2)c1 [Example 31, (S)-2-(Difluoromethyl)-5-(((2-fluoro-2-methyl-propanoyl)amino)methyl)-N-(1-(tetrahydrofuran-3-yl)-2-(4-(trifluoromethyl)phenyl)-1H-indol-5-yl)nicotinamide]",8.53 and 8.39,–
"CC(C)(F)C(=O)NCc1cnc(C(F)F)c(C(=O)Nc2ccc3c(c2)cc(-c2ccc(C(F)(F)F)cc2)n3C2CCOC2)c1 (stereo not shown) [Example 30, 2-(Difluoromethyl)-5-(((2-fluoro-2-methyl-propanoyl)amino)methyl)-N-(1-(tetrahydrofuran-3-yl)-2-(4-(trifluoromethyl)phenyl)-1H-indol-5-yl)nicotinamide]",8.52 and 8.76,–
"CC(C)(F)C(=O)NCc1cnc(C(F)F)c(C(=O)Nc2ccc3c(c2)cc(-c2ccc(C(F)(F)F)cc2)n3[C@@H]2CCOC2)c1 [Example 32, (R)-2-(Difluoromethyl)-5-(((2-fluoro-2-methyl-propanoyl)amino)methyl)-N-(1-(tetrahydrofuran-3-yl)-2-(4-(trifluoromethyl)phenyl)-1H-indol-5-yl)nicotinamide]",8.65,7.73

# From patent publication US10081629B2, “Amide derivatives and pharmaceutically acceptable salts thereof, preparation method thereof and medicinal application thereof” (Shanghai Hengrui Pharmaceutical Co., Ltd., priority 2014, dated 2018)
